These are literature values, as cited in US6761903B2, “Clear oil-containing pharmaceutical compositions containing a therapeutic agent” (Lipocine, Inc., priority 1999, dated 2004).

For the data set the following is noted: as reported by the manufacturer of the commercial product, rough average or inventors' judgment.

With PEG-6 laurate, the HLB is recorded as 11.4.

Turning to PEG-10 sorbitan laurate, the HLB is on record as over 10.

Regarding PEG-40 laurate, the HLB is recorded as 17.9.

Regarding PEG-4 laurate, the HLB is on record as 9.3.

Take PEG-10-100 nonyl phenol: the HLB is given as over 10.

With Propylene glycol caprylate/caprate, the HLB was over 6.

In the case of “Lactic acid esters of mono, diglycerides”, the HLB is listed as under 10.

Take PEG-15-100 octyl phenol ether: the HLB is over 10.
